Earlier results on one compound are cited in patent US8580735B2.

For this data set, the system named is complement activation. The note with it: relative to compstatin amidated at the C-terminus; based on published data.

Structures are written as SMILES.

On to `CC[C@H](C)[C@H](NC(C)=O)C(=O)N[C@H]1CSSC[C@@H](C(=O)N[C@H](C(N)=O)[C@@H](C)O)NC(=O)[C@H](CCCNC(=N)N)NC(=O)[C@H](Cc2cnc[nH]2)NC(=O)[C@H](Cc2cnc[nH]2)NC(=O)CNC(=O)[C@H](Cc2c[nH]c3ccccc23)NC(=O)[C@H](CC(=O)O)NC(=O)[C@H](CCC(N)=O)NC(=O)[C@H](C(C)C)NC(=O)[C@H](C(C)C)NC1=O`, for which the Activity over compstatin is reported as 3 × more.
